Data as given in ChEMBL document CHEMBL3108692, “Potent Targeting of the STAT3 Protein in Brain Cancer Stem Cells: A Promising Route for Treating Glioblastoma” (ACS Med Chem Lett, 2013).

Organism: Homo sapiens
Test: Selectivity ratio of Ki for STAT3 SH2 domain (unknown origin) to Ki for STAT1 (unknown origin)

## CN(CC(=O)N(Cc1ccc(C2CCCCC2)cc1)c1ccc(C(=O)O)c(F)c1)S(=O)(=O)c1c(F)c(F)c(F)c(F)c1F
  Ratio Ki: 2
